Experimental findings from patent publication US20160151452A1 are described below.

Assay [1] concerns the target EphB2-Fc. The experiment in a line: SPR titration (0.05-100 nM) on immobilised EphB2-Fc, Langmuir 1:1 fit.
For assay [2], the target named is EphA6-Fc. The experiment in a line: SPR titration on immobilised EphA6-Fc, Langmuir 1:1 fit.

The Kd is the concentration at which binding is half-saturated. A low value points to tighter binding. In assay [1], “GST-Azu 36-89 (from UniProt P08515 1-218)” gave a Kd of 61 nM.
Same read-out and setting: as for “GST-Azu 36-128 (from UniProt P08515 1-218)”, the figure is 23 nM.
Take ephrinA1-Fc (Fc fusion): in assay [2], the Kd is 7.8 nM.
